In patent publication US6955818B1, “Pour-on formulations” (Eli Lilly and Company, priority 1999, dated 2005):
“Also recorded” adds a separate entry of the source.

Columns and labels:
Merino sheep skin = test: Pour-on carrier/vehicle sheep skin irritation studies (histological scoring); assay type: in vivo
Method: Studies were conducted to investigate and characterise the changes occurring in Merino sheep skin following the application of a range of candidate pour-on formulation components in order to discern safe carriers. Chemicals, emollients, wool grease derivatives and a wide range of formulations were applied (in 1 mL volumes) to each of 18 sites on the back and flanks of 15 recently shorn Merino sheep.
In the first study, skin samples were collected at necropsy 3½weeks after application. In subsequent studies, skin samples were collected 2 weeks after application. Standard haematoxylin and eosin stained sections were prepared from each piece of treated skin. A histological scoring system was devised to allow comparison of treatments. Each skin was assessed for the degree of hyperkeratosis, acanthosis and inflammatory cell infiltrate of the superficial dermis and given a rating score from 0–15. A score of 0=no change through to a score of 15 for very severe damage. Normal skin scored 2–4, >4 was abnormal and >7 was very abnormal. Treatments yielding a score ? 4.5 were considered safe. […]

[1] = Example 5: diffusion of 14C-zeta-cypermethrin on sheep skin in a variety of carriers; conditions: carrier with 10 mg/mL 14C-spiked zeta-cypermethrin, 1 mL/5 kg on backline of sheep; wool at 2, 7.5, 15 cm meridians up to day 14
Method: This study compared the amount and rate of diffusion of ^14C-labelled zeta-cypermethrin from the dorsal midline of sheep, when applied in wool grease, in an aqueous formulation and in a range of test carriers.
Each formulation was applied to the backline of three sheep at 1 mL/5 kg body weight. Wool was collected from three 12×12-mm squares chosen at random, along meridian lines drawn 2, 7.5 and 15 cm down the side of each sheep from the backline. The wool samples were collected at 1, 2, 4, 8, 11 and 14 days after treatment, and each day's samples were pooled. The clipped areas were also swabbed. At day 14 after treatment, the wool at the site of application was collected and back and perirenal fat samples were collected. The quantity of zeta-cypermethrin in each sample was measured by liquid scintillation counting.

[2] = Example 12: physical characteristics and freezing points of solvents and solvent combinations; assay type: physicochemical; conditions: vehicle alone
Method: The physical characteristics of various individual solvents and solvent combinations were determined.

[3] = applied to skin of recently shorn Merino sheep, histology

## cetearyl octanoate
Merino sheep skin; 1 mL applied to skin of recently shorn Merino sheep, histological score 0-15 (0 no change, 15 very severe damage; normal 2-4, >4 abnormal, >7 very abnormal)
  Mean skin irritation scores: 4.3
Merino sheep skin; [3]
  skin irritancy / histological dermatitis (in words): mild to moderate dermatitis

## glyceryl tri caprylate/caprate [GTCC]
Merino sheep skin; in vivo
  Mean skin irritation scores: 2
  skin irritancy / histological dermatitis (in words): non-irritant
[1]
  spread of zeta-cypermethrin from the backline (in words): modest spread; also recorded: better spread
[2]
  freezing point: −5 to −13 °C

## propoxy 15 stearyl alcohol
Merino sheep skin; [3]
  skin irritancy / histological dermatitis (in words): mild to moderate dermatitis
